This is an account of results in the RepoRT retention time repository (doi:10.1016/j.jhazmat.2019.121712).

A short description of the data set: Thermo Scientific Acclaim RSLC 120 C18, 100 × 2.1 mm, 2.2 µm, 30 °C; A: 90% water + 10% methanol + 0.01% formic acid + 5 mM ammonium formate; B: methanol + 0.01% formic acid + 5 mM ammonium formate; gradient (min/%B) 0.1/1 3/39 14/99.9 16/99.9. Conditions: stereoisomer not certain.

Consider `CCOP(=S)(OCC)Oc1ncn(-c2ccccc2)n1`, for which the LC retention time was determined as 9.9 min.
